Measurements as given in PMC3928307, “Long-Term Activation upon Brief Exposure to Xanomleline Is Unique to M1 and M4 Subtypes of Muscarinic Acetylcholine Receptors” (PLoS ONE, 2014).

Amino acid sequences for entries named in this document (tags omitted).
UniProt P08172, whole entry: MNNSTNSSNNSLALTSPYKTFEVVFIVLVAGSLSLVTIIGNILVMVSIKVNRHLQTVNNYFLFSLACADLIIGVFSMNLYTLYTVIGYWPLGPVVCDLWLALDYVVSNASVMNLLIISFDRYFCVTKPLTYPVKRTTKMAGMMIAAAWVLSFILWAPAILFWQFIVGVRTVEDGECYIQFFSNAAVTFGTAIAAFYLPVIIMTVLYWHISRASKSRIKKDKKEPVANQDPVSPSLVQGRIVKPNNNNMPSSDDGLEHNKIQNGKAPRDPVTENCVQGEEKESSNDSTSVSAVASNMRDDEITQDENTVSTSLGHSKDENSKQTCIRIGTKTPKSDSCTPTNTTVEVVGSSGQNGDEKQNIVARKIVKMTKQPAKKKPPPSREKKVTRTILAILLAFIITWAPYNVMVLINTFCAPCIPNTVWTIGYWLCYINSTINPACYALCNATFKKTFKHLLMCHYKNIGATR

Target: T1, hM2 muscarinic receptor (Homo sapiens, UniProt P08172)
T1 construct: gene CHRM2; full-length receptor stably expressed in CHO cells; human G16 transiently co-transfected for calcium assay
Experiment: Fura-2 intracellular calcium microfluorometry, CHO cells
Assay type: cell-based

Structure (SMILES): CCCCCCOc1nsnc1C1=CCCN(C)C1 [xanomeline, 3-hexoxy-4-(1-methyl-3,6-dihydro-2H-pyridin-5-yl)-1,2,5-thiadiazole]
- EC50: 0.0794 µM
